What was measured:
[1] = In vitro proteolysis assay in human plasma; conditions: IT 0 min
human GHRH receptor = molecular target: T1, human GHRH receptor (human, UniProt Q02643); assay: competition with [125I-Tyr10]hGHRH(1-44)NH2, BHK cell membrane preparations expressing the human GHRH receptor
T1 sequence: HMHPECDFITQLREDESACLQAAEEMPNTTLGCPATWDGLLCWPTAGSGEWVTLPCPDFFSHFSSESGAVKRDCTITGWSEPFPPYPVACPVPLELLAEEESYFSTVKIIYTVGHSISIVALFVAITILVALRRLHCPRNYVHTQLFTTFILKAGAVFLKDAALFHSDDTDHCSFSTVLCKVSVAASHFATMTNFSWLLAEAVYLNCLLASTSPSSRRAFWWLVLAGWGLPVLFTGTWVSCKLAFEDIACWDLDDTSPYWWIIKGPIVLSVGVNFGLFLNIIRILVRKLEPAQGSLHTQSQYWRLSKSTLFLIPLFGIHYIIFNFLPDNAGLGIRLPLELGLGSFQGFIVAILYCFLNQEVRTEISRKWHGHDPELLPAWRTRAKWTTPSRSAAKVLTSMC
Procedure: ¹²⁵I-GHRH binding assay was performed using [¹²⁵I-Tyr¹⁰]hGHRH(1-44)NH₂ as a radioligand. Competition experiments were done in BHK (baby hamster kidney) 570 cell membrane preparations (25 μg of protein/assay tube) with increasing concentrations (0-1000 nM) of human(h)GHRH(1-29)NH₂, hGHRH(1-44)NH₂ or GHRH analogs, in a total volume of 300 μl of 50 mM Tris-acetate buffer (pH 7.4), containing 5 mM of MgCl₂, 5 mM EDTA and 0.42% BSA. Non specific binding was determined in presence of 1 μM hGHRH(1-29)NH₂. Incubation was carried out at equilibrium (23° C., 60 min) and stopped by centrifugation (12,000 g, 5 min, at 4° C.). The radioactivity content in pellets was determined by gamma counting. The affinity of hGHRH(1-29) NH₂ was tested in each experiment to assess the validity of the assay and determine the relative affinity of the analogs. The ligand computerized program was used to analyze competition curves of GHRH analogs reported in Tables 2 and 3 and to determine their IC50.

hGHRH(1-44)NH2 [reference compound]
Mean residual amount (%) [1]: 100%

YADAIFTNSYRKVLGQLSARKLLQDIMSRQQGESNQERGARARL (ligand, C-terminal amide (NH2)) [hGHRH(1-44)NH2]
IC50 (human GHRH receptor): 5.2 pM
